Molecular target: FAP (Homo sapiens, UniProt Q12884)
Experiment: Fluorescence binding affinity study in FAP-transfected HLF1 cells
Settings: read-out: binding affinity to FAP
Protocol: FAPL-FITC targets mouse FAP in mouse fibroblast cells. Fluorescence binding affinity study of FAPL_FITC in HLF-hFAP cells. (C) Binding of FAPL_FITC to TGFb induced mouse NIH-3T3 cell line.
In order to determine the conjugate's in vitro binding features such as binding affinity to FAP, and its bio distribution within FAP expressing cells, FAPL-FITC conjugate was incubated with a FAP transfected cell line HLF1 (human fibroblast cells), confocal microscopy and flow cytometry are used to observe the conjugate's specific targeting to FAP expressing cell line, and its subsequent endocytosis in the cell line. […] In addition, FAP ligand can recognize and target FAP with good specificity. FAPL_FITC conjugates are internalized upon receptor engagement.

The chains behind the UniProt entries cited, without tags or fusion partners.
UniProt Q12884, whole entry: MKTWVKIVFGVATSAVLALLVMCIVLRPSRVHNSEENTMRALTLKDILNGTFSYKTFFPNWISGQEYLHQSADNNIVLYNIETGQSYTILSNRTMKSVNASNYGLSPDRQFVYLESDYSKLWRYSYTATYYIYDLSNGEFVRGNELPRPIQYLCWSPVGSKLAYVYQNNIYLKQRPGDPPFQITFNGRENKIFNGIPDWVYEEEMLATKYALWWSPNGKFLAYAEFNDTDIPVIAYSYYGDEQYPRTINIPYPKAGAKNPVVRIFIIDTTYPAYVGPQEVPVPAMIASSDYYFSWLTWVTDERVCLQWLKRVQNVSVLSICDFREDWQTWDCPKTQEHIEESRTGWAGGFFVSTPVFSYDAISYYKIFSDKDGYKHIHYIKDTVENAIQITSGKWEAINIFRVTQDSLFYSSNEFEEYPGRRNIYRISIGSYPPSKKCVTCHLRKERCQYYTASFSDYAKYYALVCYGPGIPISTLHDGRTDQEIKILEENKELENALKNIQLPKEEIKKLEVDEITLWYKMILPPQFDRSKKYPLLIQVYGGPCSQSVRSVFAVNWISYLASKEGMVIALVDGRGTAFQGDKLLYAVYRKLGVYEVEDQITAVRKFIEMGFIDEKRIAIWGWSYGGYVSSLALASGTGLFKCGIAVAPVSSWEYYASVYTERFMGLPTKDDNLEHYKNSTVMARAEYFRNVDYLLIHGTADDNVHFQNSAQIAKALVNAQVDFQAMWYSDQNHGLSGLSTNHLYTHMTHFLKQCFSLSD

Question: Which Kd does the source give for `C[C@H](NC(=O)c1ccnc(CNC(=O)CCC(=O)NC(CS)C(=O)O)c1)C(=O)N1CC(F)(F)C[C@H]1C#N` (stereo partly shown) here?
Answer: 3 nM

Source: US11426472B2, “Fibroblast activation protein (FAP) targeted imaging and therapy in fibrosis” (Purdue Research Foundation, priority 2018, dated 2022)
